These are literature values, as cited in patent US20070212428A1, “METHODS AND COMPOSITIONS FOR TREATING MOOD DISORDER” (MOOD MANAGEMENT SCIENCES, INC., priority 2004, published 2007).

As usually defined, the bioavailability is dose-corrected exposure relative to a reference, in per cent.

Like-named read-outs stand apart in the source and are kept apart here.

For the series the following is noted: cited from earlier work.

As for “1-(aminoethyl)cyclohexaneacetic acid [gabapentin]”, the bioavailability entry by setting is: (900 mg/day given in 3 divided doses) “approximately 60%”; (1200 mg/day given in 3 divided doses) ~47%; (2400 mg/day given in 3 divided doses) ~34%; (3600 mg/day given in 3 divided doses) ~33%; (4800 mg/day given in 3 divided doses) ~27%.
